Experiments:
[1] = system: DPP8/9 over-expressing cells; details: Huan et al. 2015; cited from earlier work
[2] = system: mCXCL10; details: CpG-A intravenously, sitagliptin vs control
Description: Plates were washed twice with 300 μL of PBS. Blocking was done with BSA 1% (proteinase free, Gibco), in PBS for 2h at room temperature. Plates were washed 3 times with 300 μL of 0.05% Tween-20 in PBS. Tumor and plasma samples were diluted in BSA 1% and incubated for 2h, at room temperature. To obtain a standard curve, and to control for the cross-reactivity of the detection antibody, dilutions of recombinant mCXCL10 (Peprotech) or DPP4-digested mCXCL10(3-77) were incubated in parallel. For detection of mCXCL10(1-77), biotinylated α-mCXCL10(1-77) (AbDSerotec, 0.5 μg/ml, clone AbD17185.1), Streptavidin-HRP (BD Biosciences) and 1-STEP ULTRA TMB (Thermo Scientific) were used.
Enzymatic reactions were stopped with HCL 1N and plates were read with 450 nm in a Lab-systems […] MS (Thermo) reader. […] Detection of mDPP4, mCCL22 and mCXCL12 was done with the DUOSET® ELISA kit (R&D). Detection of mVEGF, mCCL2 and mCCL3 was done with a multiplex kit (Invitrogen).

Row | SMILES | selectivity for DPP4 over DPP8 and 9 [1] | plasma mCXCL10(1-77) in Dpp4-/- mice [2]
1 | N#C[C@@H]1CCCN1C(=O)CNC12CC3CC(CC(O)(C3)C1)C2 [vildagliptin] | highly-selective inhibitors of DPP4 | 
2 | Cn1c(=O)cc(N2CCC[C@@H](N)C2)n(Cc2ccccc2C#N)c1=O [alogliptin] | highly-selective inhibitors of DPP4 | 
3 | N[C@@H](CC(=O)N1CCn2c(nnc2C(F)(F)F)C1)Cc1cc(F)c(F)cc1F [sitagliptin] |  | did not have an additive effect

Reference: patent US11883398B2, “Dipeptidylpeptidase 4 inhibition enhances lymphocyte trafficking, improving both naturally occurring tumor immunity and immunotherapy” (INSTITUT PASTEUR, priority 2015, dated 2024)
